Literature values, collected in patent publication US6649649B1, “Method of treating colonic adenomas” (Merck & Co., Inc., priority 1995, dated 2003).

Tested on: PGHS-1 or PGHS-2

CC1=C(CC(=O)O)c2cc(F)ccc2/C1=C\c1ccc([S+](C)[O-])cc1 (stereo not shown) [sulindac]
selectivity for inhibition of either PGHS-1 or PGHS-2: little selectivity
